Results taken from ChEMBL document CHEMBL1151964, “Divergent modes of enzyme inhibition in a homologous structure-activity series” (J Med Chem, 2009).
Activity calls are given as the source filed them. No cut-off for these calls is given here.

Amino acid sequences for entries named in this document (tags omitted). A change or cut given only in a name is not applied to a line headed by its entry.
UniProt P25779: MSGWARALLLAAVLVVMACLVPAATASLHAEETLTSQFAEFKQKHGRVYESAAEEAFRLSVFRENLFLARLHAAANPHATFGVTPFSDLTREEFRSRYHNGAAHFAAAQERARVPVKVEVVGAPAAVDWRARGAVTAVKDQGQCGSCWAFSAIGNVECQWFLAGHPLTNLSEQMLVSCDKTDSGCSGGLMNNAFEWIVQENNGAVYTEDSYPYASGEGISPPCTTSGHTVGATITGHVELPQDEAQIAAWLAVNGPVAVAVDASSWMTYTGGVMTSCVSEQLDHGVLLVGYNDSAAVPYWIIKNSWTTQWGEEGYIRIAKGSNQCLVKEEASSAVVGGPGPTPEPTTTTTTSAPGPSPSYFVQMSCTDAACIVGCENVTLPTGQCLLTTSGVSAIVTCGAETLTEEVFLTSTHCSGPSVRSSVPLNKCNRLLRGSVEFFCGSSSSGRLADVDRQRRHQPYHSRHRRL

What was measured:
[1] = molecular target: Cruzipain (Trypanosoma cruzi) (UniProt P25779); assay: Inhibition of Trypanosoma cruzi cruzain assessed as colloidal aggregates particles formation after 5 mins by flow cytometry
How it was run: (§1)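 Particle (aggregate) formation was assessed by flow cytometry, with some samples checked by dynamic light scattering. The value is the lowest concentration tested at which particles were seen.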

[2] = molecular target: Cruzipain (Trypanosoma cruzi) (UniProt P25779); assay: Inhibition of Trypanosoma cruzi cruzain assessed as colloidal aggregates particles formation after 5 mins by flow cytometry in presence of 0.001% Triton X-100; how it was run: as §1

Activity [1]: > 200 µM | Activity [2]: inactive
Compound: Nc1ccccc1-c1nnc(C(=O)NCCN2CCOCC2)o1
